Patent US20250057858A1, “COMPOSITIONS AND METHODS FOR TREATING NEUROLOGICAL DISORDERS WITH COMBINATION PRODUCTS” (Neurotech International Ltd, priority 2021, published 2025)

Tested on: COX-2
Assay: COX-2 protein, BV2 microglia, NTI164 plus celecoxib (Example 7)
Format: cell-based
Settings: Celebrex 5 uM; NTI164 7.5; Interleukin & Interferon activation =1

SMILES: Cc1ccc(-c2cc(C(F)(F)F)nn2-c2ccc(S(N)(=O)=O)cc2)cc1 [Celebrex, celecoxib]
- COX-2 Protein: 0.768
